Consider one compound from US8592579B2, “Pyrrolotriazine kinase inhibitors” (Bristol-Myers Squibb Company, priority 2006, dated 2013).

The assay concerns IGF1R-Sal tumors. The assay can be described thus: IGF-1R Sal Tumor Model. Conditions: Mus musculus, po, 96 h, read-out: IGF-1R Sal % TGI.

Take `CO[C@H]1C[C@@H](C(=O)Nc2cnccn2)N(c2nc(Nc3cc(C4CC4)[nH]n3)c3cccn3n2)C1` [Example 255, (2S,4S)-1-(4-(5-cyclopropyl-1H-pyrazol-3-ylamino)pyrrolo[1,2-f][1,2,4]triazin-2-yl)-4-methoxy-N-(pyrazin-2-yl)pyrrolidine-2-carboxamide]: the inhibition in vivo at 25 mg/kg is 112%.
